Test results: patent publication US8772449B2, “Cell-penetrating peptides” (Toray Industries, Inc., priority 2009, dated 2014)

Experiment: Intranasal administration of insulin with peptide to rats (blood glucose, plasma insulin, bioavailability, AUC)
Details: Example 4, insulin 1 IU/kg alone or mixed with 0.5 mM peptide (L-body), male SD rat, FIG. 5

insulin
blood insulin level after intranasal administration: increase in the blood insulin level could be hardly confirmed
